Data from publication PMC5762728 (Scientific Reports, 2018).

Columns and labels:
[1] = test system: N-ACE (N-domain of bovine ACE); settings: 37 °C, up to 130 min
N-domain of ACE [2] = settings: cited from earlier work
[3] = target: T1, N-domain of bovine ACE (N-ACE) (Bos taurus, UniProt P12820); assay: Hydrolysis of Aβ metal-binding-domain peptides by N-ACE, products identified/quantified by MALDI-TOF MS; settings: for Peptide bond hydrolysed by N-ACE: bicarbonate buffer pH 7.8, 37 °C, incubation 40 min (Aβ(1-16)), 130 min (amidated Aβ peptides), 60 min (ratAβ peptide); for Bond cleaved, N-ACE (backbone positions): same digestion as products observed, 37 °C
T1 sequence (P12820 40-624 limits assumed): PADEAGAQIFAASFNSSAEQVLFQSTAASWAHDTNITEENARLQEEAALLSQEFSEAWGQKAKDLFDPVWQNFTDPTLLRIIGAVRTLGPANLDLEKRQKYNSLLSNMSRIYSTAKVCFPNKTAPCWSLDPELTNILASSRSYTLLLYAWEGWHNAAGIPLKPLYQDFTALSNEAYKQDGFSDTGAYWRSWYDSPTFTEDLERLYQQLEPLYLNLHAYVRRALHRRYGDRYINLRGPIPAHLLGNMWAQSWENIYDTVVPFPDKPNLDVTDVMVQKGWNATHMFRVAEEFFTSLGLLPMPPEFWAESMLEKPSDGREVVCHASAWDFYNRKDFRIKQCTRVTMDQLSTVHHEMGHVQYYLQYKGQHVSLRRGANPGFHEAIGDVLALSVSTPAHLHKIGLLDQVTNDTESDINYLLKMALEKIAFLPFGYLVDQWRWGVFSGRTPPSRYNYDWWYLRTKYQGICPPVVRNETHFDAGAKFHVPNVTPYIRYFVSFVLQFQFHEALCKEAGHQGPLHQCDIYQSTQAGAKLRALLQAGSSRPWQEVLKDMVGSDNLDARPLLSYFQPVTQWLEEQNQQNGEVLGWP

[4] = target: T2, C-domain of bovine ACE (C-ACE) (Bos taurus, UniProt P12820); assay: Hydrolysis of Aβ metal-binding-domain peptides by C-ACE, products identified/quantified by MALDI-TOF MS; settings: same experimental conditions as N-ACE, 37 °C
T2 sequence (P12820 643-1222 limits assumed): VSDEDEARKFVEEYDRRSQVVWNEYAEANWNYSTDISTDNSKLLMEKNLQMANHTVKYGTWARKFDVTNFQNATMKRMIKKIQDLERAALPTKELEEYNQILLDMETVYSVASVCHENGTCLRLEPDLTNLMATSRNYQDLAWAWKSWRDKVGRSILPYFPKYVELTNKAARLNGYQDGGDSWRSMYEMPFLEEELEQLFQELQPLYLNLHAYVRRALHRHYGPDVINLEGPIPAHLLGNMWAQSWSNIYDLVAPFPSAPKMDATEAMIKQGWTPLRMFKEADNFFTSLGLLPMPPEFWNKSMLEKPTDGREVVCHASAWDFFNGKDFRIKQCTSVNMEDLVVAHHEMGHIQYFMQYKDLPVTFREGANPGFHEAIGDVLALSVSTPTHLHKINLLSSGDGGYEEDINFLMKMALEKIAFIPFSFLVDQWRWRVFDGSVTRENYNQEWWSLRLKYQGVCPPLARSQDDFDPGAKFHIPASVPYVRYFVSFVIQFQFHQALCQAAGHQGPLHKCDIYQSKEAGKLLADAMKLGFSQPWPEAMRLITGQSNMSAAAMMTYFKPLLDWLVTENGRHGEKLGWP

[5] = test system: C-ACE (C-domain of bovine ACE); settings: 37 °C, up to 40 min
C-domain of ACE (C-ACE) = assay: C-ACE with lisinopril; settings: bovine, 37 °C
C-domain of ACE = settings: cited from earlier work
Description: Other researchers using peptides with unprotected ends have shown that the hydrolysis of Aβ(1–16) by both domains of ACE is not limited or specific, and that under certain conditions the C-domain also hydrolyzes Aβ peptides.

N-domain of ACE [6] = settings: cited from earlier work; remark: listed apart in the source
Description: This hormone is synthesized in the organism with a modified C-terminal amino-acid residue (Pyr-HWSYGLRPG-[Amide]) and a negatively charged pyroglutamate residue at the N-terminus. […] Thus, inhibitors of ACE should mainly suppress the formation of isoAβ(6-x) species, what could explain the positive effect of these inhibitors on patients with AD[33]–[37] and the slowing of neurod ...

Row | cleaved bond [1] | Compound | Peptide bond hydrolysed by N-ACE [3] | Bond cleaved, N-ACE (backbone positions) [3] | Peptide bond(s) hydrolysed by C-ACE [4] | further results
1 | Arg5-His6, 10 min | [Acetyl]- DAEFRHDSGYEVHHQK Amide] | – | – | – | cleaved bond (N-domain of ACE [2]): Arg5-His6
2 | Arg5-His6, 10 min | DAEFRHDSGYEVHHQK-[Amide] | – | – | – | –

The next lines start with the compound.

Row | Compound | cleaved bond [1] | Peptide bond hydrolysed by N-ACE [3] | Bond cleaved, N-ACE (backbone positions) [3] | Peptide bond(s) hydrolysed by C-ACE [4] | further results
3 | CC(C)[C@H](NC(=O)[C@H](CCC(=O)O)NC(=O)[C@H](Cc1ccc(O)cc1)NC(=O)CNC(=O)[C@H](CO)NC(=O)[C@H](CC(=O)O)NC(=O)[C@H](Cc1c[nH]cn1)NC(=O)[C@H](CCCNC(=N)N)NC(=O)[C@H](Cc1ccccc1)NC(=O)[C@H](CCC(=O)O)NC(=O)[C@H](C)NC(=O)[C@@H](N)CC(=O)O)C(=O)N[C@@H](Cc1c[nH]cn1)C(=O)N[C@@H](Cc1c[nH]cn1)C(=O)N[C@@H](CCC(N)=O)C(=O)N[C@@H](CCCCN)C(=O)O [Aβ(1-16), Asp-Ala-Glu-Phe-Arg^5-His-Asp- Ser-Gly-Tyr^10-Glu-Val-His-His-Gln^15-Lys] | – | Нis14-Gln15 | 13–14 | Нis14-Gln15 and Нis13-Нis14 | –
4 | DAEFRHDSGYEVHHQK | – | – | – | – | cleaved bond [5]: His13-His14; not cleaved (C-domain of ACE (C-ACE)): formation of hydrolysis products fully prevented
5 | CC(C)[C@H](NC(=O)[C@H](CCC(=O)O)NC(=O)[C@H](Cc1ccc(O)cc1)NC(=O)CNC(=O)[C@H](CO)NC(=O)[C@H](CC(=O)O)NC(=O)[C@H](Cc1c[nH]cn1)NC(=O)[C@H](CCCNC(=N)N)NC(=O)[C@H](Cc1ccccc1)NC(=O)[C@H](CCC(=O)O)NC(=O)[C@H](C)NC(=O)[C@@H](N)CC(=O)O)C(=O)N[C@@H](Cc1c[nH]cn1)C(=O)N[C@@H](Cc1c[nH]cn1)C(=O)N[C@@H](CCC(N)=O)C(=O)N[C@@H](CCCCN)C(N)=O [Aβ(1-16)-[Amide], Asp-Ala-Glu-Phe-Arg^5-His-Asp- Ser-Gly-Tyr^10-Glu-Val-His-His-Gln^15-Lys-[NH2]] | – | Arg5-His6 | 5–6 | does not cleave | –
6 | CC(=O)N[C@@H](CC(=O)O)C(=O)N[C@@H](C)C(=O)N[C@@H](CCC(=O)O)C(=O)N[C@@H](Cc1ccccc1)C(=O)N[C@@H](CCCNC(=N)N)C(=O)N[C@@H](Cc1c[nH]cn1)C(=O)N[C@@H](CC(=O)O)C(=O)N[C@@H](CO)C(=O)NCC(=O)N[C@@H](Cc1ccc(O)cc1)C(=O)N[C@@H](CCC(=O)O)C(=O)N[C@H](C(=O)N[C@@H](Cc1c[nH]cn1)C(=O)N[C@@H](Cc1c[nH]cn1)C(=O)N[C@@H](CCC(N)=O)C(=O)N[C@@H](CCCCN)C(N)=O)C(C)C [[CH3CO]-Asp-Ala-Glu-Phe-Arg^5-His-Asp- Ser-Gly-Tyr^10-Glu-Val-His-His-Gln^15-Lys-[NH2]] | – | Arg5-His6 | 5–6 | does not cleave | Hydrolysis by C-domain of ACE (earlier work) (C-domain of ACE): does not affect any of the bonds; Bond cleaved / hydrolysis by N-domain of ACE (earlier work) (N-domain of ACE [6]): Arg5-His6
